Data taken from patent US20260382689A1, “METHODS OF PREVENTING AND/OR TREATING SIDE EFFECTS ASSOCIATED WITH ANTI-CANCER AGENTS USING NON-NATURALLY OCCURRING MELANOCORTIN ANALOGS WITH ANTI-GDF-15 ANTIBODIES” (published 2026).

The chains behind the UniProt entries cited, without tags or fusion partners.
UniProt Q01726, whole entry: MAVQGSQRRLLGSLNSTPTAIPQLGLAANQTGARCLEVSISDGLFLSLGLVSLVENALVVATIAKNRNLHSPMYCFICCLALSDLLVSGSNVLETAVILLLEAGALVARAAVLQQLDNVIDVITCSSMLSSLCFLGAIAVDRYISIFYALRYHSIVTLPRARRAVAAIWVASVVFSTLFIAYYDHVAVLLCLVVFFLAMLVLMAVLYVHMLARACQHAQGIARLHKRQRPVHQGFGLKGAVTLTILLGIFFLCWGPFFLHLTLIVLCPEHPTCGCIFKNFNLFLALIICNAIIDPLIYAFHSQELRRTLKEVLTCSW
UniProt P41968, whole entry: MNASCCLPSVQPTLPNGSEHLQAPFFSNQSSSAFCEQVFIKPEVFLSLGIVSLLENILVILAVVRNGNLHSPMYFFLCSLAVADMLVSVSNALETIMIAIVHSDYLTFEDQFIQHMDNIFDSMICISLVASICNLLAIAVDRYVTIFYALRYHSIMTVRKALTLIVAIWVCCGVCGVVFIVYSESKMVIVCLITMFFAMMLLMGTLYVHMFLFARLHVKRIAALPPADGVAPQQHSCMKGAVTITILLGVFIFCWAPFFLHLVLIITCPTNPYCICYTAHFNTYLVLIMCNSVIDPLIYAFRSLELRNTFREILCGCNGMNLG
UniProt P32245, whole entry: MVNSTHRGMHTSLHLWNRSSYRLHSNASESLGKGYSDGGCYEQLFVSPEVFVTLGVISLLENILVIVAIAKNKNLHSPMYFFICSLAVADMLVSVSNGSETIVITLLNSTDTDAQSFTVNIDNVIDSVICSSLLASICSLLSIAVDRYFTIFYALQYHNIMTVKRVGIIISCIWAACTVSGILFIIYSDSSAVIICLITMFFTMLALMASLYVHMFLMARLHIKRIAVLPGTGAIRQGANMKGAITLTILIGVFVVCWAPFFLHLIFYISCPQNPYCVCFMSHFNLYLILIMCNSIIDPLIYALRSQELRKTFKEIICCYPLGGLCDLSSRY

Experiments:
[1] = biological target: melanocortin 1 receptor (MC1R) (Homo sapiens, UniProt Q01726); experiment: cAMP accumulation assay (HTRF), agonist and/or antagonist activity at MC1R (Example 1, Table 11); settings: dose-response, cAMP
[2] = biological target: human melanocortin 3 receptor (MC3R) (Homo sapiens, UniProt P41968); experiment: cAMP accumulation assay (HTRF), antagonist and/or agonist activity at MC3R (Example 1, Table 12, FIGS. 1-4); settings: MC3R, antagonist activity, dose-response, cAMP
[3] = biological target: human melanocortin 4 receptor (MC4R) (Homo sapiens, UniProt P32245); experiment: cAMP accumulation assay (HTRF), antagonist and/or agonist activity at MC4R (Example 1, Table 13, FIGS. 5-8); settings: Table 13; dose-response against MC4R; cAMP

Compound	EC50 [1] [nM]	IC50 [2] [nM]	IC50 [3] [nM]
CCCC[C@H](NC(C)=O)C(=O)N[C@H]1CC(=O)NCCCC[C@@H](C(=O)N[C@H](CCCNC(=N)N)C(N)=O)NC(=O)[C@H](Cc2c[nH]c3ccccc23)NC(=O)[C@H](CCCNC(=N)N)NC(=O)[C@@H](Cc2ccc3ccccc3c2)NC(=O)[C@@H]2CCCN2C1=O	8.3	0.73	12
CCC[C@H](NC(C)=O)C(=O)N[C@H]1CC(=O)NCCCC[C@@H](C(=O)N[C@@H](C(=O)N2CCC[C@@H]2C(N)=O)C(C)C)NC(=O)[C@H](Cc2c[nH]c3ccccc23)NC(=O)[C@H](CCCNC(=N)N)NC(=O)[C@@H](Cc2ccc3ccccc3c2)NC(=O)[C@@H]2CCCN2C1=O	100	2.44	130
CCCC[C@H](NC(C)=O)C(=O)N[C@H]1CC(=O)NCCCC[C@@H](C(=O)N[C@@H](CCCCN)C(=O)N[C@@H](C(=O)N2CCC[C@@H]2C(N)=O)C(C)C)NC(=O)[C@H](Cc2c[nH]c3ccccc23)NC(=O)[C@H](CCCNC(=N)N)NC(=O)[C@@H](Cc2ccc3ccccc3c2)NC(=O)[C@@H]2CCCN2C1=O	1.7	1.21	8.2
CCCC[C@H](NC(C)=O)C(=O)N[C@H]1CC(=O)NCCCC[C@@H](C(=O)N[C@@H](CCCNC(=N)N)C(=O)N[C@@H](C(=O)N2CCC[C@@H]2C(N)=O)C(C)C)NC(=O)[C@H](Cc2c[nH]c3ccccc23)NC(=O)[C@H](CCCNC(=N)N)NC(=O)[C@@H](Cc2ccc3ccccc3c2)NC(=O)[C@@H]2CCCN2C1=O	7.4	1.67	89
CCCC[C@H](NC(C)=O)C(=O)N[C@H]1CC(=O)NCCCC[C@@H](C(=O)NCC(=O)NCC(N)=O)NC(=O)[C@H](Cc2c[nH]c3ccccc23)NC(=O)[C@H](CCCNC(=N)N)NC(=O)[C@@H](Cc2ccc3ccccc3c2)NC(=O)[C@@H]2CCCN2C1=O	2.2		
CCCC[C@H](NC(C)=O)C(=O)N[C@H]1CC(=O)NCCCC[C@@H](C(=O)N[C@@H](C(=O)N2CCC[C@@H]2C(N)=O)C(C)C)NC(=O)[C@H](Cc2c[nH]c3ccccc23)NC(=O)[C@H](CCCNC(=N)N)NC(=O)[C@@H](Cc2ccc3ccccc3c2)NC(=O)[C@@H](C)NC1=O	220	665	> 1000
CCCC[C@H](NC(C)=O)C(=O)N[C@H]1CC(=O)NCCCC[C@@H](C(=O)N[C@@H](C(=O)N2CCC[C@@H]2C(N)=O)C(C)C)NC(=O)[C@H](Cc2c[nH]c3ccccc23)NC(=O)[C@H](CCCNC(=N)N)NC(=O)[C@@H](Cc2ccc3ccccc3c2)NC(=O)[C@H]([C@@H](C)CC)NC1=O	28	9.51	22
CCCC[C@H](NC(C)=O)C(=O)N[C@@H]1CC(=O)NCCCC[C@@H](C(=O)N[C@@H](C(=O)N2CCC[C@@H]2C(N)=O)C(C)C)NC(=O)[C@H](Cc2c[nH]c3ccccc23)NC(=O)[C@H](CCCNC(=N)N)NC(=O)[C@@H](Cc2ccc3ccccc3c2)NC(=O)[C@@H]2CCCN2C1=O	4.2		
CCCC[C@H](NC(C)=O)C(=O)N[C@@H]1C(=O)N[C@H](Cc2ccc3ccccc3c2)C(=O)N[C@@H](CCCNC(=N)N)C(=O)N[C@@H](Cc2c[nH]c3ccccc23)C(=O)N[C@@H](C(=O)N[C@@H](C(=O)N2CCC[C@@H]2C(N)=O)C(C)C)CSSC1(C)C		> 1000	> 1000
CCCC[C@H](NC(C)=O)C(=O)N[C@H]1CC(=O)NCCCC[C@@H](C(=O)N[C@@H](C(=O)N2CCC[C@@H]2C(N)=O)C(C)C)NC(=O)[C@@H](Cc2c[nH]c3ccccc23)NC(=O)[C@H](CCCNC(=N)N)NC(=O)[C@@H](Cc2ccc3ccccc3c2)NC(=O)[C@@H]2CCCN2C1=O	35		
CCCC[C@H](NC(C)=O)C(=O)N[C@H]1CC(=O)NCCCC[C@@H](C(=O)N[C@H](CCCNC(=N)N)C(=O)N2CCC[C@@H]2C(=O)N[C@@H](C(N)=O)C(C)C)NC(=O)[C@H](Cc2c[nH]c3ccccc23)NC(=O)[C@H](CCCNC(=N)N)NC(=O)[C@@H](Cc2ccc3ccccc3c2)NC(=O)[C@@H]2CCCN2C1=O	4.7	1.03	22
CCCC[C@H](NC(C)=O)C(=O)N[C@H]1CC(=O)NCCCC[C@@H](C(=O)N2CCC[C@H]2C(N)=O)NC(=O)[C@H](Cc2c[nH]c3ccccc23)NC(=O)[C@H](CCCNC(=N)N)NC(=O)[C@@H](Cc2ccc3ccccc3c2)NC(=O)[C@@H]2CCCN2C1=O	64		
CCCC[C@H](NC(C)=O)C(=O)N[C@H]1CC(=O)NCCCC[C@@H](C(=O)N[C@@H](C)C(N)=O)NC(=O)[C@H](Cc2c[nH]c3ccccc23)NC(=O)[C@H](CCCNC(=N)N)NC(=O)[C@@H](Cc2ccc3ccccc3c2)NC(=O)[C@@H]2CCCN2C1=O	4.1		
CCCC[C@H](NC(C)=O)C(=O)N[C@@H]1CSSC[C@@H](C(=O)N[C@@H](C(=O)N2CCC[C@@H]2C(N)=O)C(C)C)NC(=O)[C@H](Cc2c[nH]c3ccccc23)NC(=O)[C@H](CCCNC(=N)N)NC(=O)[C@@H](Cc2ccc3ccccc3c2)NC(=O)[C@@H]2CCCN2C1=O	0.59		
CCCC[C@H](NC(C)=O)C(=O)N[C@@H]1CSSC[C@H](C(=O)N[C@@H](C(=O)N2CCC[C@@H]2C(N)=O)C(C)C)NC(=O)[C@H](Cc2c[nH]c3ccccc23)NC(=O)[C@H](CCCNC(=N)N)NC(=O)[C@@H](Cc2ccc3ccccc3c2)NC1=O	> 1000		
CCCC[C@H](NC(C)=O)C(=O)N[C@H]1CC(=O)NCCCC[C@@H](C(=O)N[C@@H](C(=O)N2CCC[C@@H]2C(N)=O)C(C)C)NC(=O)[C@H](CCCNC(=N)N)NC(=O)[C@@H](Cc2ccc3ccccc3c2)NC(=O)[C@@H]2CCCN2C1=O	300		
CCCC[C@H](NC(C)=O)C(=O)N[C@H]1CSSC[C@@H](C(=O)N[C@@H](C(=O)N2CCC[C@@H]2C(N)=O)C(C)C)NC(=O)[C@H](Cc2c[nH]c3ccccc23)NC(=O)[C@H](CCCNC(=N)N)NC(=O)[C@@H](Cc2ccc3ccccc3c2)NC1=O	> 1000		

Next, values leading:

EC50 [1] [nM]	IC50 [2] [nM]	IC50 [3] [nM]	Compound
1.1	0.9	16	CCCC[C@H](NC(C)=O)C(=O)N[C@H]1CC(=O)NCCCC[C@@H](C(=O)N[C@@H](C(=O)N[C@@H](CCCNC(=N)N)C(N)=O)C(C)C)NC(=O)[C@H](Cc2c[nH]c3ccccc23)NC(=O)[C@H](CCCNC(=N)N)NC(=O)[C@@H](Cc2ccc3ccccc3c2)NC(=O)[C@@H]2CCCN2C1=O
54	4.38	11	CCCC[C@H](NC(C)=O)C(=O)N[C@H]1CC(=O)NCCCC[C@@H](C(=O)N[C@@H](C(=O)N2CCC[C@@H]2C(N)=O)C(C)C)NC(=O)[C@H](Cc2c[nH]c3ccccc23)NC(=O)[C@H](CCCNC(=N)N)NC(=O)[C@@H](Cc2ccc3ccccc3c2)NC(=O)[C@H](C(C)C)NC1=O
190	3.48	95	CCCC[C@H](NC(C)=O)C(=O)N[C@H]1CC(=O)NCCCC[C@@H](C(=O)N[C@@H](CC(=O)O)C(N)=O)NC(=O)[C@H](Cc2c[nH]c3ccccc23)NC(=O)[C@H](CCCNC(=N)N)NC(=O)[C@@H](Cc2ccc3ccccc3c2)NC(=O)[C@@H]2CCCN2C1=O
82	25	240	CCCC[C@H](NC(C)=O)C(=O)N[C@H]1CC(=O)NCCCC[C@@H](C(=O)N[C@H](CC(=O)O)C(N)=O)NC(=O)[C@H](Cc2c[nH]c3ccccc23)NC(=O)[C@H](CCCNC(=N)N)NC(=O)[C@@H](Cc2ccc3ccccc3c2)NC(=O)[C@@H]2CCCN2C1=O
35	3.02	81	CCCC[C@H](NC(C)=O)C(=O)N[C@H]1CC(=O)NCCCC[C@@H](C(=O)N[C@H](CCCCN)C(=O)N[C@@H](C(=O)N2CCC[C@@H]2C(N)=O)C(C)C)NC(=O)[C@H](Cc2c[nH]c3ccccc23)NC(=O)[C@H](CCCNC(=N)N)NC(=O)[C@@H](Cc2ccc3ccccc3c2)NC(=O)[C@@H]2CCCN2C1=O
3.8	1.07	29	CCCC[C@H](NC(C)=O)C(=O)N[C@H]1CC(=O)NCCCC[C@@H](C(=O)N[C@@H](C(=O)N[C@H](CCCNC(=N)N)C(N)=O)C(C)C)NC(=O)[C@H](Cc2c[nH]c3ccccc23)NC(=O)[C@H](CCCNC(=N)N)NC(=O)[C@@H](Cc2ccc3ccccc3c2)NC(=O)[C@@H]2CCCN2C1=O
0.15			CCCC[C@H](NC(C)=O)C(=O)N[C@H]1CC(=O)NCCCC[C@@H](C(=O)N[C@H](C(=O)N2CCC[C@H]2C(N)=O)C(C)C)NC(=O)[C@H](Cc2c[nH]c3ccccc23)NC(=O)[C@H](CCCNC(=N)N)NC(=O)[C@@H](Cc2ccc3ccccc3c2)NC(=O)[C@@H]2CCCN2C1=O
0.15			CCCC[C@H](NC(C)=O)C(=O)N[C@H]1CC(=O)NCCCC[C@@H](C(=O)N[C@@H](CCCCN)C(=O)N2CCC[C@H]2C(=O)N[C@H](C(N)=O)C(C)C)NC(=O)[C@H](Cc2c[nH]c3ccccc23)NC(=O)[C@H](CCCNC(=N)N)NC(=O)[C@@H](Cc2ccc3ccccc3c2)NC(=O)[C@@H]2CCCN2C1=O
3.8			CCCC[C@H](NC(C)=O)C(=O)N[C@H]1CC(=O)NCCCC[C@@H](C(=O)N[C@@H](CC(N)=O)C(N)=O)NC(=O)[C@H](Cc2c[nH]c3ccccc23)NC(=O)[C@H](CCCNC(=N)N)NC(=O)[C@@H](Cc2ccc3ccccc3c2)NC(=O)[C@@H]2CCCN2C1=O
0.82	1.63	15	CCCC[C@H](NC(C)=O)C(=O)N[C@H]1CC(=O)NCCCC[C@@H](C(=O)N[C@@H](CCCNC(=N)N)C(=O)N2CCC[C@@H]2C(N)=O)NC(=O)[C@H](Cc2c[nH]c3ccccc23)NC(=O)[C@H](CCCNC(=N)N)NC(=O)[C@@H](Cc2ccc3ccccc3c2)NC(=O)[C@@H]2CCCN2C1=O
> 1000			CCCC[C@H](NC(C)=O)C(=O)N[C@H]1C(=O)N2CCC[C@H]2C(=O)N[C@H](Cc2ccc3ccccc3c2)C(=O)N[C@@H](CCCNC(=N)N)C(=O)N[C@@H](Cc2c[nH]c3ccccc23)C(=O)N[C@@H](C(=O)N[C@@H](C(=O)N2CCC[C@@H]2C(N)=O)C(C)C)C(C)(C)SSC1(C)C
